The target in the assay is MC4R (Homo sapiens, UniProt P32245). Put plainly: MC4R IC50 (nM)^a. The conditions noted are these: read-out: MC4R IC50 (nM)^a.

Sequences of proteins named here, by UniProt entry; tags and fusion partners are left off.
UniProt P32245, whole entry: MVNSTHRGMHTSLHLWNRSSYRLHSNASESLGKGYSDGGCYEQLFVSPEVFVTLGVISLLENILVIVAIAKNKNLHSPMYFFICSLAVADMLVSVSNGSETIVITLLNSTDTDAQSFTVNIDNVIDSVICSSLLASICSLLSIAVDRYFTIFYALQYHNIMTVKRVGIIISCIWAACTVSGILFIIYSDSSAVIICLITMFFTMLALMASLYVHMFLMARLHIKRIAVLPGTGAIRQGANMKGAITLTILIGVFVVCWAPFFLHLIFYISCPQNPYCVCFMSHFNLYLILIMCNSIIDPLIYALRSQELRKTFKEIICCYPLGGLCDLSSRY

A value given as a limit tells only on which side of the number the result lay.

For the molecule `CC(C)(C)CC(=O)N1CCN(C(=O)C[C@H](Cc2ccc(Cl)cc2)C(=O)N2CCN(c3ccccc3N(CC3CC3)S(C)(=O)=O)CC2)CC1`, the IC50 (usually the midpoint of a concentration-inhibition curve) is less than 0.1 nM.

(Values after US20100129319A1, “TREATMENT OF DISEASE OR INJURY OF THE NERVOUS SYSTEM USING AGENTS THAT DECREASE THE ACTIVITY OF THE MELANOCORTIN 4 RECEPTOR” (priority 2006, published 2010).)
